# Reference: PubChem BioAssay AID889 (National Center for Advancing Translational Sciences (NCATS), 2007)
# Chains of the proteins cited; added tags and fusions are not shown. Residues count along the entry.
# UniProt P55210, 24-198 limits assumed: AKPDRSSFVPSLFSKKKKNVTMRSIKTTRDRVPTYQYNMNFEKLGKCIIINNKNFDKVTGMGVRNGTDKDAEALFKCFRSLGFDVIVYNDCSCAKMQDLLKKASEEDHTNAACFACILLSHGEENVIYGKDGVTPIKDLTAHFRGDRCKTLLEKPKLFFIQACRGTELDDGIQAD
# UniProt P55210, 207-303 limits assumed: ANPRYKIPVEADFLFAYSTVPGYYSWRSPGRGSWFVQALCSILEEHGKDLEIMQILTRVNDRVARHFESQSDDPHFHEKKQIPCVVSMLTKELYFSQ
# This is a selection; strong and weak results do not stand in their true shares. Results filed as inconclusive are left out. Active and inactive are the calls of the source. Calls come from the whole dose curve; as a rule, active = well fitted inhibition curve with a large enough effect in the main read-out, with a control signal flat (not every such curve was filed as active); inconclusive = small, poorly fitted or top-dose-only effect, or a change in a side signal; inactive = flat fitted curve, though single readings scatter.
# Molecular target: Caspase-7 (Homo sapiens) (UniProt P55210)
# Test: qHTS Assay for Allosteric/Competitive Inhibitors of Caspase-7; note: % of control where 0% means no effect
# Details: recombinant caspase-7, Ac-DEVD-AFC fluorescence rate; at 57.5 µM (top of the series) unless noted
# From the text: NIH Molecular Libraries Screening Centers Network [MLSCN]
# NIH Chemical Genomics Center [NCGC]
# PI Name: Dr. James Wells,
# Dr. Enrique Perez-Paya, Dr.Janice Williams, Dr. Dennis Wolan, a person
# The caspases (Cysteine Aspartyl Protease) comprise a related family of 14 dimeric proteases that are critical mediators of apoptosis (programmed cell death) and inflammation. The caspases represent an important class of drug targets for stroke, ischemia, cancer and inflammatory diseases. […] One goal of this project was to identify compounds that act as allosteric inhibitors via stabilizing the procaspase form of the enzyme. Previous work in Well's laboratory has shown that such allosteric inhibitors can be identified and these act by binding at the dimer interface of enzyme (Hardy, Lam et al., 2004).
# The biochemical assay was configured using purified caspase 7 at a high enzyme concentration to promote formation of the homodimers and thus facilitate the identification of allosteric inhibitors. The overall goal was to identify reversible inhibitors with better drug-like properties than the currently available set of aspartyl-containing peptidomimetics that covalently bind the active site. Caspase 7 was assayed using the profluorescent substrate Ac-DEVD-AFC. After initiation of the assay with substrate the plates were rapidly read using an automated robotic system (Kalypsys, Inc.) to maintain consistent timing. A kinetic mode of detection was used where the initial rate was collected (estimated final product formation was ~10%). Compounds were screened as a concentration-titration series that ranged from 57 uM to 0.7 nM. Below is the protocol used for caspase 7.
# NCGC Assay Protocol Summary:
# Caspase 7 was prepared in buffer (50 mM HEPES pH 7.5, 50 mM KCl, 200 mM NaCl, 10 mM DTT, 0.1% CHAPS) at a concentration of 66.6 nM and 3 uL was dispensed to all wells using black solid Kalypsys 1536-well plates. 20 nL of DMSO containing compounds was added using a pin-tool (Kalypsys Inc.) to columns 5-48. Then 20 nL of DMSO solution from a control plate was added to columns 1-4. Controls were: Column 1, 16 point titration with each concentration in duplicate (1:1 dilutions in DMSO; final starting concentration was 57 uM) of the caspase 7 inhibitor Ac-DEVD-CHO (Alexis Biochemicals); Column 2, a 16 point titration with each concentration in duplicate of the free AFC fluorophore prepared in DMSO (Alexis Biochemicals), final starting was 40 uM; Column 3 neutral (DMSO only) control; Column 4: DMSO alone, to serve as a negative control (no substrate was added). Then 1 uL of 20 uM the substrate Ac-DEVD-AFC (Alexis Biochemicals) prepared in the same buffer was dispensed to all wells except columns 2 and 4 and the plates were immediately transferred (< 1 min) to the Viewlux. The plates were then exposed using 405 nm excitation/520 nm emission filters for 4 sec and read at 20 sec intervals for 3 min. Final enzyme concentration was 50 nM and the final substrate concentration was 5 uM.
# Concentration-response curves were fitted to the data calculated from slope of the linear regression of fluorescent intensity versus time (the rate). The concentration-effect curves were then classified based on curve quality (r2), response magnitude and degree of measured activity. […] Inconclusive compounds had appreciable concentration-dependent effects on both the measured rate and the interpolated basal fluorescence intensity at the start of the reaction but where the basal fluorescent intensity was marginal (e.g. < 10-fold). Inconclusive compounds also encompass highly fluorescent compounds (>100-fold increases in fluorescent intensities values relative to controls) where artificial concentration-dependent decreases in the rate occurred at high compound concentrations due to fluorescent interferences.
# Keywords: Caspase 7, proteases, profluorescent, MLSMR, MLSCN, NIH Roadmap, qHTS, NCGC
row,SMILES,"activity change, negative = inhibition"
1,COc1ccccc1OP(C)(=O)Nc1ccc(C)c(C)c1 (configuration not stated),inactive: 2.88%
2,Cc1nc2ccc3ccccc3c2o1.O=[N+]([O-])c1cc([N+](=O)[O-])c(O)c([N+](=O)[O-])c1,inactive: -7.77%
3,CP(=O)(Nc1ccccn1)Oc1ccccc1 (configuration not stated),inactive: -2.03%
4,OCCSCCO,inactive: 0.761%
5,COc1ccccc1OP(C)(=O)Nc1c(C)n(C)n(-c2ccccc2)c1=O (configuration not stated),inactive: 0.815%
6,CP(=O)(Oc1ccccc1)N1CCOC1=O (configuration not stated),inactive: 1.05%
7,N#[O+].[C-]#N.[C-]#N.[C-]#N.[C-]#N.[C-]#N.[Fe+2].[Na+].[Na+],inactive: 0.0357%
8,C/C1=C2N=C(/C=C3N=C(/C(C)=C4\[N-][C@@](C)([C@H]5N=C1[C@@](C)(CCC(=O)NC[C@H](C)OP(=O)([O-])O[C@@H]1[C@H](O)[C@H](n6cnc7cc(C)c(C)cc76)O[C@@H]1CO)[C@@H]5CC(N)=O)[C@](C)(CC(N)=O)[C@H]4CCC(N)=O)[C@@](C)(CC(N)=O)[C@@H]\3CCC(N)=O)C(C)(C)[C@@H]/2CCC(N)=O.[C-]#N.[Co+3],inactive: -13.1% [at 25.7 µM]
9,CN(C)CCOC(=O)C(O)(c1ccccc1)C1CCCCC1 (configuration not stated),inactive: -2.77%
10,Cc1c([N+](=O)[O-])cccc1[N+](=O)[O-],inactive: -0.822%
11,Cc1ccc([N+](=O)[O-])c([N+](=O)[O-])c1,inactive: 1.76%
12,CCOP(C)(=S)SCC(=O)NC(C)(CC)C(=O)O (configuration not stated),inactive: 0.073%
13,CCOP(=O)(CC)OCC,inactive: 0.784%
14,[NH4+].[O-][Cl+3]([O-])([O-])[O-],inactive: -0.421%
15,CCN(CCCl)Cc1ccccc1C,inactive: -0.187%
16,Cc1ccccc1NP(C)(=O)Nc1ccccc1C,inactive: -0.566%

row,SMILES,"activity change, negative = inhibition"
1,NNC(NN)NN.n1nc(-c2nn[nH]n2)n[nH]1,inactive: -1.21% [at 11.5 µM]
2,CP(=O)(Nc1ccc2c(c1)OCCO2)Oc1ccccc1 (configuration not stated),inactive: 1.44%
3,CP(=O)(Nc1ccccc1F)Oc1ccccc1 (configuration not stated),inactive: 1.35%
4,Cc1cccc([N+](=O)[O-])c1[N+](=O)[O-],inactive: 1.19%
5,CCC(C)(OO)OOC(C)(CC)OO (configuration not stated),inactive: 0.0223%
6,O=[N+]([O-])c1cccc([N+](=O)[O-])c1,inactive: -0.128%
7,Cc1ccc([N+](=O)[O-])cc1[N+](=O)[O-],inactive: 1.23%
8,Cc1ccc(C)c(NP(C)(=O)Oc2ccccc2)c1 (configuration not stated),inactive: 0.442%
9,Cc1nc2ccc3ccccc3c2s1.O=[N+]([O-])c1cc([N+](=O)[O-])c(O)c([N+](=O)[O-])c1,inactive: 1.21%
10,N1=C(c2nnc(-c3nn[nH]n3)nn2)NNN1,inactive: 0.302% [at 11.5 µM]
11,CP(=S)(Nn1cnnc1)Oc1ccccc1 (configuration not stated),inactive: -0.0935%
12,CP(=O)(NC(=O)Nc1ccccc1)Oc1ccccc1 (configuration not stated),inactive: -0.83%
13,CCOP(C)(=S)SCC(=O)NC(C)C(=O)O (configuration not stated),inactive: -2.61%
14,O=[N+]([O-])[O-].[NH4+],inactive: 1.5%
15,Cc1ccc(NP(C)(=O)Oc2ccccc2)c(C)c1 (configuration not stated),inactive: 0.116%
16,COc1ccccc1OP(C)(=O)Nc1ccc(C)cc1 (configuration not stated),inactive: -5.33%
